According to patent publication US12274745B2, “Conjugate of CAPRIN-1 antibody linked to immune activator for cancer treatment” (TORAY INDUSTRIES, INC., priority 2016, dated 2025):

How the values were obtained:
[1] = test system: Human breast cancer cells BT474; test: In vivo antitumor effect, BT474-bearing NOD-SCID mice (Example 6); conditions: 10 mg/kg tail vein once a week, 50 days after the start of the administration
Description: Specifically, the conjugates of the present invention were examined for their antitumor effect using NOD-SCID mice in which human-derived cancer cells expressing the CAPRIN-1 protein were transplanted. Human breast cancer cells BT474 were mixed with Matrigel (Sigma-Aldrich Corp.) and subcutaneously transplanted at 10^7 cells/mouse to the mice, which were then grown until tumor became 180 mm^3 or larger to prepare cancer-bearing mice. BT474 expresses the CAPRIN-1 protein on the cell membrane surface. As shown in Example 5, Conjugates 1 to 6 and Conjugates 15 to 20 prepared using anti-CAPRIN-1 polyclonal antibodies #1 to #6, and Conjugates 7 to 14 and Conjugates 21 to 28 prepared using anti-CAPRIN-1 monoclonal antibodies specifically bind to the cell membrane surface. Conjugates 1 to 28 were each administered at 10 mg/kg to the tail veins of 10 cancer-bearing mice.
The administration to the cancer-bearing mice was carried out once a week.
(§1) PBS(−) was administered to the cancer-bearing mice, for a negative control.
(§2) The tumor sizes of the cancer-bearing mice after the administration were measured using calipers over time, and tumor volumes were calculated according to an ordinary method based on the expression: (Length of the major axis of tumor)×(Length of the minor axis of tumor)^2×0.5. […]

[2] = test system: Human breast cancer cells BT-474; test: Flow cytometry, reactivity with cell membrane surface of CAPRIN-1-expressing cancer cells (BT-474); assay type: cell-based; conditions: BT474 cells
Description: Next, the reactivity with the cell membrane surface of CAPRIN-1-expressing cancer cells was verified by flow cytometry. Human breast cancer cells BT-474 (from ATCC) or mouse breast cancer cells 4T1 (from ATCC) were centrifuged in 1.5 mL microcentrifuge tubes (2×10^5 cells per tube). 100 μL of the solutions containing each of Conjugates 1 to 6, Conjugates 15 to 20, Control conjugate 1, and Control conjugate 2 was then each added to separate tubes. The tube was left to stand on ice for 1 hour. After washing with PBS, Alexa 488-labeled anti-rabbit IgG (H+L) diluted 100-fold with PBS(−) containing 0.5% FBS (0.5% FBS-PBS(−)) was added thereto, and the tube was left to stand on ice for 1 hour. After washing with 0.5% FBS-PBS(−), the cells were suspended in 0.2 μg/mL propidium iodide and 0.5% FBS-PBS(−), and the fluorescence intensity was measured using FACSVerse™ (Becton, Dickinson and Company).

[3] = test system: Human lung cancer cells H1650; test: In vivo antitumor effect, H1650-bearing Balb/c nude mice (Example 7); conditions: 10 mg/kg tail vein once a week, three times, 25 days after the start of the administration
Description: Specifically, the conjugates of the present invention were examined for their antitumor effect using Balb/c nude mice in which human-derived cancer cells expressing CAPRIN-1 were transplanted. Human lung cancer cells H1650 were subcutaneously transplanted to the ventral regions of the mice, which were then grown until tumor became 180 mm^3 or larger to prepare cancer-bearing mice. The lung cancer cells H1650 express the CAPRIN-1 protein on the cell membrane surface. As shown in Example 5, Conjugates 1 to 28 specifically bind to CAPRIN-1 on the cell membrane surface of the lung cancer cells H1650. Conjugates 1 to 14 prepared in Example 3 and Conjugates 15 to 28 prepared in Example 4 were each administered at 10 mg/kg to the tail veins of 10 cancer-bearing mice.
A solution containing a conjugate of cetuximab and resiquimod was prepared by the method described in Example 3 and administered as a comparative control in the same amount as above to the cancer-bearing mice. The administration was carried out once a week a total of three times.
as §1, §2

Substance | tumor volume relative to the tumor volume of the negative control (100%) [1] [%] | fluorescence intensity (reactivity with the cell surface) [2] | tumor volume relative to the tumor volume of the negative control (100%) [3] [%]
conjugate of trastuzumab and resiquimod: conjugate of trastuzumab and resiquimod prepared by the method described in Example 3, comparative control | 54 | specifically binds to BT474 | –
conjugate of cetuximab and resiquimod: conjugate of cetuximab and resiquimod prepared by the method described in Example 3, comparative control | – | – | 32
